Measurements: ChEMBL document CHEMBL4330119 (J Med Chem, 2019)
Active and inactive are the calls of the source.

Legend:
Mus musculus [1] = species: Mus musculus; assay: Selectivity ratio of Ki for mouse DOR expressed in CHO cell membranes to Ki for mouse MOR expressed in CHO cell membranes; format: cell-based
How it was run: (§1)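 Ratio of Ki values from competition binding: 30 μg CHO membranes in TME pH 7.4, filtration. IC50 converted to Ki by Cheng–Prusoff.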

Mus musculus [2] = species: Mus musculus; assay: Selectivity ratio of Ki for mouse KOR expressed in CHO cell membranes to Ki for mouse MOR expressed in CHO cell membranes; format: cell-based; how it was run: as §1
Mus musculus [3] = assay: In vivo antagonist activity at MOR in sc dosed Swiss Webster mouse assessed reduction in morphine-induced antinociceptive effect by measuring morphine MPE preincubated for 5 mins followed by morphine addition and measured after 20 min post morphine challenge by tail immersion test; format: functional
How it was run: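 Male Swiss Webster mice, 5 per group. […] Baseline latency 2–4 s, 10 s cutoff. %MPE calculated per mouse. AD50 by least-squares linear regression, 95% CI by Bliss method.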

Mus musculus [4] = assay: Antinociceptive activity in Swiss Webster mouse at 10 mg/kg, sc measured after 20 min post dose by tail immersion test; format: functional, organism-based
How it was run: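 Male Swiss Webster mice, 7–8 weeks, 5 per group. Compound given sc, tail immersed in 56 ± 0.1 °C water 20 min later. Only mice with baseline latency of 2–4 s were used. 10 s cutoff. %MPE = [(test – control)/(10 – control)] × 100.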

## O=C(N[C@@H]1CC[C@@]2(O)[C@H]3Cc4ccc(O)c5c4[C@@]2(CCN3CC2CC2)[C@H]1O5)c1ccncc1F
Mus musculus [1]
  Ratio Ki: 436
Mus musculus [2]
  Ratio Ki: 13.3
Mus musculus [3]
  inhibition: Dose-dependent effect
Mus musculus [4]
  Activity: inactive
